Source: patent publication US5158770A (dated 1992)

Test: Solubility Test-1: dissolution of ginkgo leaf extract dry powder in aqueous solution of the compound
Format: physicochemical
Settings: 5 g compound in 100 ml water at 20° C., 10 g ginkgo leaf extract, shaken 10 minutes

| SMILES | Dissolution state |
| --- | --- |
| NCCO [Monoethanol amine] | .largecircle. |
| Cl.N[C@@H](Cc1c[nH]cn1)C(=O)O [Histidine hydrochloride] | .largecircle. |
